US12269859B2, “Synthetic immune receptors and methods of use thereof” (Angeles Therapeutics, Inc., priority 2016, dated 2025)

The chains behind the UniProt entries cited, without tags or fusion partners. A line that says so, or that is headed by a name, gives the form on record, which may keep a tag or linker.
UniProt P15391, with tags, fused parts or gaps: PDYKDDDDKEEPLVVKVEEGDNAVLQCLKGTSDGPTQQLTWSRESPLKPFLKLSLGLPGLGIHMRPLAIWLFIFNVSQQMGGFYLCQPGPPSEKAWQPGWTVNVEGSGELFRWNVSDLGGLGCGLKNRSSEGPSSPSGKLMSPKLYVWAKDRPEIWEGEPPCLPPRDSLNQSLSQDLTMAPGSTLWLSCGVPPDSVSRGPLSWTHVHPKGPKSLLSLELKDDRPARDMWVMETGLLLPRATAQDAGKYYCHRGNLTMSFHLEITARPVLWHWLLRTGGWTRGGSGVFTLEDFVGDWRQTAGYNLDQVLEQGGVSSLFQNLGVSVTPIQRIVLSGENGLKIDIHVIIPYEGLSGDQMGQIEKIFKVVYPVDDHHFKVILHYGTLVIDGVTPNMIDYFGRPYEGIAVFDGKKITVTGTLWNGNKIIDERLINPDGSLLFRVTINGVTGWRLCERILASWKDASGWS

Key:
[1] = tested on: target cell lines expressing the target antigen; test: GLuc based T cell cytotoxicity assay on target cell lines (summary Table 10A); settings: for T-CELL Cytotoxicity Assay Positive cell line: target cell line RAJI; for T-CELL Cytotoxicity Assay Positive cell line: RAJI: Gluc cytotoxicity, 4-96 hour co-culture of RAJI with SIR-expressing T cells vs control T cells
[2] = biological target: T1, human CD19 (Homo sapiens, UniProt P15391); test: NLuc binding assay with CD19-GGSG-NLuc-AcV5 fusion protein; settings: for NLuc values (binding of CD19-GGSG-NLuc-AcV5): Jurkat-NFAT-Luc cells stably transduced, selected in puromycin; for Mean NLuc value (binding of CD19-GGSG-NLuc-AcV5): human peripheral blood T cells expressing the constructs
T1 construct: The extracellular domains of human CD19 and human MPL, including their signal peptides, were fused in frame; made in house; host or cells: 293FT cells, transient transfection; conditioned medium used unpurified

Substance | NLuc values (binding of CD19-GGSG-NLuc-AcV5) [2] | Mean NLuc value (binding of CD19-GGSG-NLuc-AcV5) [2] | T-CELL Cytotoxicity Assay Positive cell line: RAJI [1] | other results
CD8SP-CD19Bu12-(vL-vH)-Myc-BBz-T2A-PAC [SEQ ID NO:4503, reference compound] | – | – | – | T-CELL Cytotoxicity Assay Positive cell line [1]: RAJI (2+)
CD8SP-CD19Bu12-vL-V5-[TCRb-S57C-opt1]-F-P2A-SP-CD19Bu12-vH-Myc-[TCRa-T48C-opt1]-F-F2A-PAC [SEQ ID NO:1021] | 128996 | 39575 | – | –
CD8SP-CD20-2F2-vL-[canine-TCRb-opt]-F-P2A-CD20-2F2-vH-[canine-TCRa-opt]-F-F2A-PAC [SEQ ID NO:1113] | – | – | RAJI (2+) | –
CD8SP-FMC63(vL-vH)-Myc-BBz-T2A-PAC [SEQ ID NO:4501, reference compound] | – | – | – | binding to Flag-CD19-GGSG-NLuc-AcV5 (in words) ([2]; 293FT cells transiently transfected with CAR): strong binding
CD8SP-FMC63-vL-Myc-[hTCRa-T48C-opt1]-F-F2A-FMC63-VH-V5-[hTCRb-C57C-opt1]-F-P2A-PAC [SEQ ID NO:902] | – | – | RAJI (+), | –
CD8SP-FMC63-vL-V5-[TCRb-S57C-opt1]-F-P2A-SP-FMC63-vH-Myc-[TCRa-T48C-opt1]-F-F2A-PAC [SEQ ID NO:900] | 37216 | 19178 | RAJI (2+) | increase in CD19-GGSG-NLuc binding ([2]; Jurkat-NFAT-Luc cells): more than 10 fold
CD8SP-FMC63-vL-V5-[hTCRb-S57C-opt]-F-P2A-SP-FMC63-vH-Myc-[hTCRa-T48C-opt]-F-F2A-PAC [SEQ ID NO:951] | – | – | – | T-CELL Cytotoxicity Assay Positive cell line [1]: RAJI (2+)
CD8SP-FMC63-vL-V5-[hTCRb-WT]-F-P2A-SP-FMC63-vH-Myc-[hTCRa-WT]-F-F2A-PAC [SEQ ID NO:922] | 3606 | 1190 | – | –
CD8SP-FMC63-vL-V5-[hTCRg-opt]-F-P2A-SP-FMC63-vH-Myc-[hTCRd-opt]-F-F2A-PAC [SEQ ID NO:949] | 2176 | – | – | –
CD8SP-FMC63-vL-V5-[mTCRb-opt]-F-P2A-SP-FMC63-vH-Myc-[mTCRa-opt]-F-F2A-PAC [SEQ ID NO:953] | 12128 | 5359 | – | T-CELL Cytotoxicity Assay Positive cell line [1]: RAJI (+)
IgHSP-FMC63-vH-[hTCRb-C57C-opt]-F-P2A-CD8SP-FMC63-VL-MYC-[hTCRa-T48C-opt]-F-F2A-Pac [SEQ ID NO:901] | – | – | RAJI (2+) | –
